For 1 substance, solubility in water results are on record in patent EP2623495B1, “Positively charged water-soluble prodrugs of n-arylanthranilic acids with very fast skin penetration rate” (Techfields Biochem Co. Ltd, priority 2006, dated 2008).

This series can be described thus: Solubility in water.

As for “S-dimethylaminoethyl 2-[[(3-trifluoromethyl)phenyl]amino] benzoate.AcOH”, the solubility in water turned out to be 400 mg/mL.
